Laboratory results reported in patent publication US20250376512A1.

Tests used:
[1] = target: cat FcRn (complex of cat FCGRT extracellular region with C-terminal His tag and cat β2m) (cat) (UniProt Q5MGS7); assay: SPR (Biacore X100), pH 6.0, fold against wild-type Fc
[2] = target: cat FcRn (complex of cat FCGRT extracellular region with C-terminal His tag and cat β2m) (cat) (UniProt Q5MGS7); assay: SPR (Biacore X100), ratio of KD values at pH 6.0, reference wild-type Fc
[3] = target: cat FcRn (complex of cat FCGRT extracellular region with C-terminal His tag and cat β2m) (cat) (UniProt Q5MGS7); assay: SPR (Biacore X100), antibody captured on Protein L chip, cat FcRn as analyte, pH 6.0
[4] = target: cat FcRn (complex of cat FCGRT extracellular region with C-terminal His tag and cat β2m) (cat) (UniProt Q5MGS7); assay: SPR (Biacore X100), antibody captured on Protein L chip, cat FcRn as analyte, pH 6.0 (repeats Table 3)
[5] = target: cat FcRn (complex of cat FCGRT extracellular region with C-terminal His tag and cat β2m) (cat) (UniProt Q5MGS7); assay: SPR (Biacore X100), ratio of KD at pH 6.0 to KD at pH 7.4
[6] = target: cat FcRn (complex of cat FCGRT extracellular region with C-terminal His tag and cat β2m) (cat) (UniProt Q5MGS7); assay: SPR (Biacore X100), antibody captured on Protein L chip, cat FcRn as analyte, pH 6.0; pH 6.0
[7] = target: cat FcRn (complex of cat FCGRT extracellular region with C-terminal His tag and cat β2m) (cat) (UniProt Q5MGS7); assay: SPR (Biacore X100), antibody captured on Protein L chip, cat FcRn as analyte, pH 7.4; pH 7.4
[8] = target: dog FcRn (complex of dog FCGRT extracellular region with C-terminal His tag and dog β2m) (dog); assay: SPR (Biacore X100), antibody captured on Protein L chip, dog FcRn as analyte, pH 6.0
[9] = target: dog FcRn (complex of dog FCGRT extracellular region with C-terminal His tag and dog β2m) (dog); assay: SPR (Biacore X100), antibody captured on Protein L chip, dog FcRn as analyte, pH 7.4
[10] = target: dog FcRn (complex of dog FCGRT extracellular region with C-terminal His tag and dog β2m) (dog); assay: SPR (Biacore X100), antibody captured on Protein L chip, dog FcRn as analyte, pH 6.0 (repeats Table 2)
[11] = target: dog FcRn (complex of dog FCGRT extracellular region with C-terminal His tag and dog β2m) (dog); assay: SPR (Biacore X100), pH 6.0, fold against wild-type Fc
[12] = target: dog FcRn (complex of dog FCGRT extracellular region with C-terminal His tag and dog β2m) (dog); assay: SPR (Biacore X100), ratio of KD at pH 6.0 to KD at pH 7.4
[13] = target: dog FcRn (complex of dog FCGRT extracellular region with C-terminal His tag and dog β2m) (dog); assay: SPR (Biacore X100), ratio of KD values at pH 6.0, reference wild-type Fc
[14] = target: dog FcRn (complex of dog FCGRT extracellular region with C-terminal His tag and dog β2m) (dog); assay: SPR (Biacore X100), antibody captured on Protein L chip, dog FcRn as analyte, pH 6.0; pH 6.0
[15] = target: dog FcRn (complex of dog FCGRT extracellular region with C-terminal His tag and dog β2m) (dog); assay: SPR (Biacore X100), antibody captured on Protein L chip, dog FcRn as analyte, pH 7.4; pH 7.4

| Substance | activity of Fc region variant with FcRn binding activity of wild-type Fc as 1 [1] | KD (variant)/KD (wild-type) at pH 6.0 [2] | KD (pH6.0)/KD (pH7.4) [5] | Kd [6] | Kd [7] | Kd [8] | Kd [10] | activity of Fc region variant with FcRn binding activity of wild-type Fc as 1 [11] | KD (pH6.0)/KD (pH7.4) [12] | KD (variant)/KD (wild-type) at pH 6.0 [13] | further results |
| --- | --- | --- | --- | --- | --- | --- | --- | --- | --- | --- | --- |
| CFV-3 (omalizumab Fd-Hinge fused to cat Fc region variant S428L/S434A/Q438R/S440E, with omalizumab L chain) (antibody) | 13.7 | 0.07 |  |  |  |  |  |  |  |  | Kd [3]: 46.2 nM; Kd [4]: 46.2 nM |
| CFV-8 (omalizumab Fd-Hinge fused to cat Fc region variant S252T/S254T/T256E/H433L/S434F, with omalizumab L chain) (antibody) | 17.8 | 0.06 | 0.006 | 39.3 nM | 6390 nM |  |  |  |  |  |  |
| DFV-8 (omalizumab Fd-Hinge fused to dog Fc region variant L252T/A254T/T256E/H433L/N434F, with omalizumab L chain) (antibody) |  |  |  |  |  | 69.6 nM | 69.6 nM | 28.8 | 0.01 | 0.03 | Kd [9]: 6850 nM |
| DFV-5 (omalizumab Fd-Hinge fused to dog Fc region variant M428L/N434S, with omalizumab L chain) (antibody) |  |  |  |  |  | 820 nM | 820 nM | 2.2 | 0.357 | 0.46 | Kd [9]: 2300 nM |
| CFV-4 (omalizumab Fd-Hinge fused to cat Fc region variant S252Y/S254T/T256E, with omalizumab L chain) (antibody) | 29.5 | 0.03 | 0.005 | 21.4 nM | 4610 nM |  |  |  |  |  |  |
| CFV-6 (omalizumab Fd-Hinge fused to cat Fc region variant I308P/S434Y, with omalizumab L chain) (antibody) | 259 | 0 | 0.003 | 2.7 nM | 1060 nM |  |  |  |  |  |  |

Further lines, with some results ahead:

| activity of Fc region variant with FcRn binding activity of wild-type Fc as 1 [1] | KD (variant)/KD (wild-type) at pH 6.0 [2] | KD (pH6.0)/KD (pH7.4) [5] | Kd [6] | Kd [7] | Kd [8] | Kd [10] | activity of Fc region variant with FcRn binding activity of wild-type Fc as 1 [11] | KD (pH6.0)/KD (pH7.4) [12] | KD (variant)/KD (wild-type) at pH 6.0 [13] | Substance | further results |
| --- | --- | --- | --- | --- | --- | --- | --- | --- | --- | --- | --- |
|  |  |  |  |  | 543 nM | 543 nM | 3.7 |  | 0.27 | DFV-1 (omalizumab Fd-Hinge fused to dog Fc region variant N434A/Y436T/Q438R/S440E, with omalizumab L chain) (antibody) |  |
| 13.7 | 0.07 |  |  |  |  |  |  |  |  | CFV-7 (omalizumab Fd-Hinge fused to cat Fc region variant V259I/I308F/S428L, with omalizumab L chain) (antibody) | Kd [3]: 51 nM; Kd [4]: 51 nM |
|  |  |  |  |  |  |  | 18.2 | 0.006 | 0.05 | DFV-4 (omalizumab Fd-Hinge fused to dog Fc region variant L252Y/A254T/T256E, with omalizumab L chain) (antibody) | Kd [14]: 109 nM; Kd [15]: 18100 nM |
